Reference: patent US20250304717A1, “CAMPTOTHECIN DERIVATIVE AND LIGAND-DRUG CONJUGATE” (HAINAN SIMCERE ZAIMING PHARMACEUTICAL CO., LTD., priority 2022, published 2025)

B1: ADC-L1-19-P1-5 (antibody, human IgG1, kappa, V domains shown)
VH: EVQLVQSGAEVKKPGASVKVSCKASGYTFTDNYINWVRQAPGQRLEWMGWIYPGTGNSYYNEKFKGRVTITVDTSASTAYMELSSLRSEDTAVYLCASSYGDSFDYWGQGTTVTVSS
VL: DIVMTQSPDSLAVSLGERATINCRASQDIRNYLNWYQQKPGQTPKLLISYTSRLHSGVPDRFSGSGSGTDFTLTISSLQAEDVAVYYCQQYSQLPWTFGGGTKVEIKR
modifications: drug-linker L1-19-P1 on cysteine thiols after TCEP reduction; positions not given; DAR 8.2 for the whole conjugate
notes: Antibody-drug conjugate
B2: ADC-L1-19-7 (antibody, V domains shown)
VH: QVQLVQSGAEVKKPGASVKVSCKASGLTIEDYYMHWVRQAPGQGLEWMGWIDPENGDTEYGPKFQGRVTMTRDTSINTAYMELSRLRSDDTAVYYCAVHNAHYGTWFAYWGQGTLVTVSS
VL: DVVMTQSPLSLPVTLGQPASISCRSSQSLLHSSGNTYLEWYQQRPGQSPRPLIYKISTRFSGVPDRFSGSGSGTDFTLKISRVEAEDVGVYYCFQGSHVPYTFGGGTKVEIKR
modifications: drug-linker L1-19 on cysteine thiols after TCEP reduction; positions not given; DAR 6.5 for the whole conjugate
B3: ADC-L1-0-7 (antibody, V domains shown)
VH: QVQLVQSGAEVKKPGASVKVSCKASGLTIEDYYMHWVRQAPGQGLEWMGWIDPENGDTEYGPKFQGRVTMTRDTSINTAYMELSRLRSDDTAVYYCAVHNAHYGTWFAYWGQGTLVTVSS
VL: DVVMTQSPLSLPVTLGQPASISCRSSQSLLHSSGNTYLEWYQQRPGQSPRPLIYKISTRFSGVPDRFSGSGSGTDFTLKISRVEAEDVGVYYCFQGSHVPYTFGGGTKVEIKR
modifications: drug-linker L1-0 on cysteine thiols after TCEP reduction; positions not given; DAR 6.7 for the whole conjugate
B4: LIV1-Ab-1 (antibody, V domains shown)
VH: QVQLVQSGAEVKKPGASVKVSCKASGLTIEDYYMHWVRQAPGQGLEWMGWIDPENGDTEYGPKFQGRVTMTRDTSINTAYMELSRLRSDDTAVYYCAVHNAHYGTWFAYWGQGTLVTVSS
VL: DVVMTQSPLSLPVTLGQPASISCRSSQSLLHSSGNTYLEWYQQRPGQSPRPLIYKISTRFSGVPDRFSGSGSGTDFTLKISRVEAEDVGVYYCFQGSHVPYTFGGGTKVEIKR
B5: ADC-L1-19-P1-7 (antibody, V domains shown)
VH: QVQLVQSGAEVKKPGASVKVSCKASGLTIEDYYMHWVRQAPGQGLEWMGWIDPENGDTEYGPKFQGRVTMTRDTSINTAYMELSRLRSDDTAVYYCAVHNAHYGTWFAYWGQGTLVTVSS
VL: DVVMTQSPLSLPVTLGQPASISCRSSQSLLHSSGNTYLEWYQQRPGQSPRPLIYKISTRFSGVPDRFSGSGSGTDFTLKISRVEAEDVGVYYCFQGSHVPYTFGGGTKVEIKR
modifications: drug-linker L1-19-P1 on cysteine thiols after TCEP reduction; positions not given; DAR 8.3 for the whole conjugate

Key:
[1] = tested on: SKBR3 tumor cell; test: Binding of anti-HER2 ADC and antibody with SKBR3 tumor cell by FACS; parameters: species or system human
Description: (§1) SKBR3 cells (from ATCC) were collected, counted, and plated in a 96-well plate (Corning, 3795) at 2×10^5 cells/well. The serially diluted sample to be detected was added and incubated at 4° C. for 1 h. After the mixture was washed twice with ice PBS, Alexa Fluor-647 goat anti-human Fc secondary antibody (JacksonImmuno, 109-605-098) was added, and the mixture was incubated at 4° C. for 1 h. After the mixture was washed twice with ice PBS, the cells were resuspended, and the mean fluorescence intensity (MFI) was analyzed using a flow cytometer (BD FACSCanto™ II). Data were analyzed by four-parameter curve fitting using Graphpad Prism software to give EC50 values.

[2] = target: T1, CDH6 on OVCAR3 cells (human, UniProt P55285 54-790); test: flow cytometry (FACS) on OVCAR3 cells, Alexa Fluor 647 anti-human Fc secondary antibody, MFI, four-parameter fit
T1 construct: whole, on cells; also called CDH6 positive cells OVCAR3; CDH6 high-expression cell strain
T1 sequence (looked up): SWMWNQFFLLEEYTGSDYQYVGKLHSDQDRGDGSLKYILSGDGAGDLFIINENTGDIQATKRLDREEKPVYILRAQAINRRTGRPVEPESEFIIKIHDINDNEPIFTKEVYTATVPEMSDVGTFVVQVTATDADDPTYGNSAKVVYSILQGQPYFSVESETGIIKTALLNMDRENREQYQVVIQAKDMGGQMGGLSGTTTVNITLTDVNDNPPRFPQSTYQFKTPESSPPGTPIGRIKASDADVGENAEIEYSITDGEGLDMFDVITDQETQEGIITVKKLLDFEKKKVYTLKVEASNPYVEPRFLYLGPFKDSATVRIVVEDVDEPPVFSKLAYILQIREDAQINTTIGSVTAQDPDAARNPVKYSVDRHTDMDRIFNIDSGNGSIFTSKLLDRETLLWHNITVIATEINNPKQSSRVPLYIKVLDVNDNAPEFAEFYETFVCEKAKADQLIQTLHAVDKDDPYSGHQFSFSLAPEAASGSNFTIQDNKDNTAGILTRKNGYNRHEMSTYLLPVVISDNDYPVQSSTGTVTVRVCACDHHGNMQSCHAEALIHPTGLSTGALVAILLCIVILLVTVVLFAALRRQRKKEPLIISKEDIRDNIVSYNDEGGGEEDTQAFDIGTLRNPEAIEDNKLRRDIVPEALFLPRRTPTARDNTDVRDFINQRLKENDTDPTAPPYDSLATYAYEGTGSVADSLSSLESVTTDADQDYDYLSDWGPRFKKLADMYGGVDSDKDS
Description: as §1, with “OVCAR3” for “SKBR3”, “cells” for “cells (from ATCC)”, “2×10⁵” for “2×10^5”, “Goat” for “goat”, “EC₅₀” for “EC50”

[3] = target: T2, LIV-1 on OVCAR3 tumor cells (human, UniProt Q13433 29-755); test: as above
T2 construct: whole, on cells; also called LIV-1 positive cells OVCAR3
T2 sequence (looked up): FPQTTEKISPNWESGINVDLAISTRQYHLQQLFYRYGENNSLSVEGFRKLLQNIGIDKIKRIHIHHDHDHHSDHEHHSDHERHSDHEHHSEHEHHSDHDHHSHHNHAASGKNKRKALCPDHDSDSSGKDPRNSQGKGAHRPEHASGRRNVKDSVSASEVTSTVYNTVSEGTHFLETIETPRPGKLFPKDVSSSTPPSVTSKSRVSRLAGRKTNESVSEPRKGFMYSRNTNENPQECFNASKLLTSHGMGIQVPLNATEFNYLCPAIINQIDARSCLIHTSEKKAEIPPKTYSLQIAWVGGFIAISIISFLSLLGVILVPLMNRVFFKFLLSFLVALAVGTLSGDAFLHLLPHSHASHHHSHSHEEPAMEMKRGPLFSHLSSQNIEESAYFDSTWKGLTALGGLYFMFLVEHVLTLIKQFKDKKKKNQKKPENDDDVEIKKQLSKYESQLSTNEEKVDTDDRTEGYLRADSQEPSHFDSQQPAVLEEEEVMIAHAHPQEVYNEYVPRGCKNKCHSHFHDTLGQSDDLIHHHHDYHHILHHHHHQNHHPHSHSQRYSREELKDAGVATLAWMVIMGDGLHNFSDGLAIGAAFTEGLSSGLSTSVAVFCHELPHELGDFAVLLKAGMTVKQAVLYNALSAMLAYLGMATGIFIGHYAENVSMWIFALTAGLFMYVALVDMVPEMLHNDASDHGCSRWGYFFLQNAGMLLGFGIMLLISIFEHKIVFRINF
Description: as §1, with “OVCAR3” for “SKBR3”, “cells” for “cells (from ATCC)”, “2×10⁵” for “2×10^5”, “Goat” for “goat”, “EC₅₀” for “EC50”

Molecule	EC50 [3]	further results
Trastuzumab: anti-human HER2 monoclonal antibody; VH SEQ ID NO: 1, VL SEQ ID NO: 2 [reference compound]	–	EC50 [1]: 3.38 nM
B1	–	EC50 [2]: 0.53 nM
B2	0.83 nM	–
B3	1.45 nM	–
B4	0.53 nM	–
B5	0.67 nM	–
